# AlphaSeq binding of Ab-14 heavy chain variants to a spike HR2 peptide

Target peptide (SARS-CoV-2 spike, HR2 region): PDVDLGDISGINAS

Parent scFv Ab-14: VH joined to VL by a (GGGGS)3 linker. Changes lie in the heavy chain CDRs alone.
VH: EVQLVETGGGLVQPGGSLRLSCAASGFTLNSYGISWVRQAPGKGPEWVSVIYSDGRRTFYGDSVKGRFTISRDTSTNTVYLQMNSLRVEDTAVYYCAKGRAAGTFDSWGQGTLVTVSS
VL: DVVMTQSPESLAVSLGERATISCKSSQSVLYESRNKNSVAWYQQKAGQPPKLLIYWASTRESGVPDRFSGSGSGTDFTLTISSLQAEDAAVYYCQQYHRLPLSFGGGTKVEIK

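The starting antibody came from a phage panning campaign against this peptide. Library AAYL49 holds single substitutions and randomly drawn double and triple substitutions in the CDRs. Affinity was read by AlphaSeq, a pooled yeast mating assay with surface-displayed partners. Binding brings cells together so that they mate, and sequencing counts the barcode pairs among the diploids. Read counts were normalised to the haploid input and turned into Kd by a linear fit to BCL2-family pairs of known affinity, for each replicate. The assay was run in three technical replicates.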

Sequences are complete VH domains. Scale: log10 of Kd in nM, estimated from mating counts; low values are strong binders. Replicates are averaged; those with no signal do not enter the mean. Where no diploid with the target was found in that replicate, the entry reads "nd": below detection, most likely a poor binder, though not proof of it. For reference, the parent read 0.65 as the reference entry and 4.11 (one replicate of three) as a member of this library. Three control strains display no target. For library AAYL49, 15% of the pairings with them gave a signal, with a median of 4.06 and one signal in twenty below 2.83, so weak values seen in few replicates may be background.

| log10 Kd, replicates | mean log10 Kd (nM) | VH |
|---|---|---|
| nd nd nd | nd | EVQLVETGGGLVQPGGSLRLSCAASGFTLNSYGYSWVRQAPGKGPEWVSVNYSDGRRTFYGDSMKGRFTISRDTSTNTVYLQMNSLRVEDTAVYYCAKGRAAGTFDSWGQGTLVTVSS |
| nd 2.99 nd | 2.99 | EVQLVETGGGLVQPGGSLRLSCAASGFTLNSGGISWVRQAPGKGPEWVSVIYSDGRRTFRGDSVKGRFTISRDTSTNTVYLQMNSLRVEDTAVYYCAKGRACGTFDSWGQGTLVTVSS |
| nd nd nd | nd | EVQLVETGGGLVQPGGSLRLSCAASGWTLNSYGISWVRQAPGKGPEWVSVIYSDGRRQFYGDSVAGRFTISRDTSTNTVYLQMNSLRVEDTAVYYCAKGRAAGTFDSWGQGTLVTVSS |
| nd 3.95 nd | 3.95 | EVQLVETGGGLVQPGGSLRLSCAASGFTLNSYGISWVRQAPGKGPEWVSVIYSDGRRTCYGDSVKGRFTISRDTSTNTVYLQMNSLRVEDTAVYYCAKGRAAGTHYSWGQGTLVTVSS |
| nd nd nd | nd | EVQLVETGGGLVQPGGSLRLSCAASGFTLNSWGISWVRQAPGKGPEWVSVIYSDGHWTFYGDSVKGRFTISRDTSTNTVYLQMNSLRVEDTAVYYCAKGRAAGTFDSWGQGTLVTVSS |
| nd nd nd | nd | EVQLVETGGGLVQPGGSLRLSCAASGFTLNSYGISWVRQAPGKGPEWVSVIYSDGRRSFYMDSVKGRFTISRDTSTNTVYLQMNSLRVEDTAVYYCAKFRAAGTFDSWGQGTLVTVSS |
| nd 5.31 4.43 | 4.87 | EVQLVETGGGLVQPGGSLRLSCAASGFTLNSYGISWVRQAPGKGPEWVSVIYSDGRRTFHGDSVKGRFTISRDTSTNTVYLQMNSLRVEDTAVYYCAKGRAAGTHDSWGQGTLVTVSS |
| nd nd nd | nd | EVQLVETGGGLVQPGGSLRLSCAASGFTLNSYGISWVRQAPGKGPEWVSVIYSDGRWTFYGDSVMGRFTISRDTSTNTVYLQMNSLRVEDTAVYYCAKGRAAGIFDSWGQGTLVTVSS |
| nd nd nd | nd | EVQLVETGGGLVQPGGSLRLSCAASGFTLNFYGISWVRQAPGKGPEWVSVIYSDGRRTFYGDSVKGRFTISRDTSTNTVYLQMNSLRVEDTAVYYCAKGRAAGTLDKWGQGTLVTVSS |
| 3.93 nd nd | 3.93 | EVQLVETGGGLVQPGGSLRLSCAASGFTLNSYGISWVRQAPGKGPEWVSSIYSDGRRTFYLDSVKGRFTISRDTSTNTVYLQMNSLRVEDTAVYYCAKGRDAGTFDSWGQGTLVTVSS |
| nd nd nd | nd | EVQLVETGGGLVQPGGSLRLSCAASGFEFNSYGISWVRQAPGKGPEWVSVIYSDGRRTFYGDSYKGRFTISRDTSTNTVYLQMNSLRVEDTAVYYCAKGRAAGTFDSWGQGTLVTVSS |
| nd nd nd | nd | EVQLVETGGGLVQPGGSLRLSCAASGFTLNSYGISWVRQAPGKGPEWVSVIYSDEHRTFYGDHVKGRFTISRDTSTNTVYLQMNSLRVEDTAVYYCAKGRAAGTFDSWGQGTLVTVSS |
| nd nd nd | nd | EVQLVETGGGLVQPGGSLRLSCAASGFTLNSIPISWVRQAPGKGPEWVSVINSDGRRTFYGDSVKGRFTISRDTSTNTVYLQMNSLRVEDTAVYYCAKGRAAGTFDSWGQGTLVTVSS |
| nd 3.37 nd | 3.37 | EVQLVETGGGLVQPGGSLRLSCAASGFTLNSYGISWVRQAPGKGPEWVSVIYSDGFATFYGDSWKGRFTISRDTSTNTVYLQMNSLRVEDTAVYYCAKGRAAGTFDSWGQGTLVTVSS |
| nd nd nd | nd | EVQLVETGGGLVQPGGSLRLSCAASGFTLNSYCISWVRQAPGKGPEWVSVIYRDGRRTFYGDSVKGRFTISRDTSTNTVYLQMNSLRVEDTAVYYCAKGRAAGTVDSWGQGTLVTVSS |
| nd nd nd | nd | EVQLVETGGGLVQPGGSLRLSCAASGFTLNSYGISWVRQAPGKGPEWVSVIYSDFRRTWYGDSVKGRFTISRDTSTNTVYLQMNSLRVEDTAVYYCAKGRAATTFDSWGQGTLVTVSS |

From the list, the first 2 with no signal in any replicate:

{"VH": "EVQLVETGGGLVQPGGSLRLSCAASGFTLNSYGYSWVRQAPGKGPEWVSVNYSDGRRTFYGDSMKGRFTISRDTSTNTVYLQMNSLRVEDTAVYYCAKGRAAGTFDSWGQGTLVTVSS", "log10 Kd, replicates": "nd nd nd", "mean log10 Kd (nM)": "nd"}
{"VH": "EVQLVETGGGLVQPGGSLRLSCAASGWTLNSYGISWVRQAPGKGPEWVSVIYSDGRRQFYGDSVAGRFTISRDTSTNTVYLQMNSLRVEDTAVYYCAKGRAAGTFDSWGQGTLVTVSS", "log10 Kd, replicates": "nd nd nd", "mean log10 Kd (nM)": "nd"}

Data: MIT Lincoln Laboratory AlphaSeq set, Engelhart et al. 2022, doi:10.1038/s41597-022-01779-4, as distributed in FLAb.